Measured values taken from PMC6804443 (Acta Pharmaceutica Sinica. B, 2019).
Like-named read-outs stand apart in the source and are kept apart here.

By UniProt entry, the sequences of proteins in these tests, tags left out.
UniProt P11712, whole entry: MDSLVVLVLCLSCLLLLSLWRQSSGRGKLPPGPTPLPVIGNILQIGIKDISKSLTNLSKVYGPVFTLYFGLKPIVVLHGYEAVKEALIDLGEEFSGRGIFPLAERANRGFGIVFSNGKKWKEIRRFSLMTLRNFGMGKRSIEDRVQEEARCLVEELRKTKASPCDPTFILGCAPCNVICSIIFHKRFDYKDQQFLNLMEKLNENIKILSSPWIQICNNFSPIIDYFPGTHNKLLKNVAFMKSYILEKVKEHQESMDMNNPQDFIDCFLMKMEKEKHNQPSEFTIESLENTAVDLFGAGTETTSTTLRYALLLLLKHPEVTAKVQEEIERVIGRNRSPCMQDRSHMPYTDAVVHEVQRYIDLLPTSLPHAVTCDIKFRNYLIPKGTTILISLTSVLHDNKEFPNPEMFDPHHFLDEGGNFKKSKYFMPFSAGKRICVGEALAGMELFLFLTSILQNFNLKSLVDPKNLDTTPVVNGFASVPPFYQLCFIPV

Tests used:
[1] = parameters: species or system human; settings: in vivo
[2] = data pending publication elsewhere
[3] = system: P450 enzymes, UGTs, SULTs, OATP1B1/1B3, OAT1/3, OCT2, MATE1/2-K, MDR1, BCRP; assay type: in vitro ADME, human; settings: data pending publication elsewhere
CYP3A4 = settings: hepatocytes
CYP1A2 = settings: hepatocytes
CYP2C9 = CYP2C9 (Homo sapiens, UniProt P11712); test: CYP2C9 inhibition by XueBiJing compounds, cDNA-expressed enzyme [MFC→HFC]; assay type: in vitro ADME; settings: read-out: IC50, CYP2C9 [MFC→HFC]; mean ± SD (n = 3)
[4] = XueBiJing compounds; cited from earlier work
[5] = system: P450 enzymes, UGTs, SULTs, OATP1B1/1B3, OAT1/3, OCT2, MATE1/2-K, MDR1, BCRP; settings: cited from earlier work
[6] = cited from earlier work
UGT1A9 = molecular target: T1, UGT1A9 (Homo sapiens, UniProt O60656); test: UGT1A9 inhibition by XueBiJing compounds, cDNA-expressed enzyme [4-MU→4-MUG]; assay type: in vitro ADME; settings: read-out: IC50, UGT1A9 [4-MU→4-MUG]; mean ± SD (n = 3)
T1 sequence (O60656 26-530): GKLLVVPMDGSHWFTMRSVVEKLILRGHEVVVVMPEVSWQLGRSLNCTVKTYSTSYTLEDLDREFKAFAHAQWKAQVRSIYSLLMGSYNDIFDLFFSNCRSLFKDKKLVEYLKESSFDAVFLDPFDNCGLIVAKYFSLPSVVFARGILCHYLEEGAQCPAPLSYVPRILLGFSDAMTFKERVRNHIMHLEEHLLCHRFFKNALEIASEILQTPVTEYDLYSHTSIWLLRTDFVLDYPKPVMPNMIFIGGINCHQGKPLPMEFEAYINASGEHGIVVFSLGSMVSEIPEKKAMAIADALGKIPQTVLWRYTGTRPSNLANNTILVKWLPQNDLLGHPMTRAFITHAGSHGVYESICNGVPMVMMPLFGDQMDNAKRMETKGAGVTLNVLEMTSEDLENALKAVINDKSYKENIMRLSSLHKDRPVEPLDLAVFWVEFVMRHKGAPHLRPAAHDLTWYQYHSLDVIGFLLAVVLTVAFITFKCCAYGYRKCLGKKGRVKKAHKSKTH

[7] = XueBiJing compounds, cited from earlier work
[8] = human, XueBiJing 100 mL via 75-min intravenous infusion

**Q.** What does the source list for Hydroxysafflor yellow A [X1]?
**A.** VSS ([1]; human): 0.34 L/kg; fu-p (unbound fraction in plasma) ([1]; human): 30%; t1/2 ([1]; human): 4.0 h; Cmax ([1]; human, iv): 3800 nM; CLR/(GFR × fu-p) [1]: Renal excretion, GF-based, fe-U, 51% CLR/(GFR × fu-p), 1.2; Major elimination route [1]: Renal excretion, GF-based, fe-U, 51% CLR/(GFR × fu-p), 1.2; fe-U (fraction of dose excreted unchanged into urine) [1]: Renal excretion, GF-based, fe-U, 51% CLR/(GFR × fu-p), 1.2; Membrane permeability [2]: Poor; Related metabolism and transport data (substrate status) [3]: Not the substrate of P450 enzymes, UGTs, SULTs, OATP1B1/1B3, OAT1/3, OCT2, MATE1/2-K, MDR1, or BCRP; EA-T/U ratio, CYP3A4 (CYP3A4): 2.1–4.9; mRNA-T/U ratio, CYP3A4 (CYP3A4): 4.0 to 9.6; EA-T/U ratio (treated-cell/untreated-cell ratio of enzyme activity), CYP1A2 (CYP1A2): 2.1–4.9; mRNA-T/U ratio, CYP1A2 (CYP1A2): 4.0 to 9.6

**Q.** What does the source list for oxypaeoniflorin [X3]?
**A.** IC50 (CYP2C9): 93 ± 18 µM; Membrane permeability [4]: Poor; Related metabolism and transport data (substrate status) [5]: Not the substrate of P450 enzymes, UGTs, SULTs, OATP1B1/1B3, OAT1/3, OCT2, MATE1/2-K, MDR1, or BCRP; fu-p (unbound fraction in plasma) ([6]; human plasma): 80%; Cmax [6, 8]: 600 nM; VSS [6, 8]: 0.16 L/kg; t1/2 [6, 8]: 0.7 h; Major elimination route ([6]; human): Renal excretion, GF-based; fe-U (fraction of dose excreted unchanged into urine) ([6]; human): 84%; IC50 (UGT1A9): 74 ± 20 µM; pKa [7]: 8.2; LogD(7.4) ([7]; pH 7.4): −0.2
